This assay has as its target T1, soluble catalytic domain fragment of human HMG reductase (Homo sapiens, UniProt P04035).
T1 construct: composed of insoluble transmembrane segment and soluble catalytic domain; purchased Sigma-Aldrich CS 1090
T1 sequence (P04035 340-888 limits assumed): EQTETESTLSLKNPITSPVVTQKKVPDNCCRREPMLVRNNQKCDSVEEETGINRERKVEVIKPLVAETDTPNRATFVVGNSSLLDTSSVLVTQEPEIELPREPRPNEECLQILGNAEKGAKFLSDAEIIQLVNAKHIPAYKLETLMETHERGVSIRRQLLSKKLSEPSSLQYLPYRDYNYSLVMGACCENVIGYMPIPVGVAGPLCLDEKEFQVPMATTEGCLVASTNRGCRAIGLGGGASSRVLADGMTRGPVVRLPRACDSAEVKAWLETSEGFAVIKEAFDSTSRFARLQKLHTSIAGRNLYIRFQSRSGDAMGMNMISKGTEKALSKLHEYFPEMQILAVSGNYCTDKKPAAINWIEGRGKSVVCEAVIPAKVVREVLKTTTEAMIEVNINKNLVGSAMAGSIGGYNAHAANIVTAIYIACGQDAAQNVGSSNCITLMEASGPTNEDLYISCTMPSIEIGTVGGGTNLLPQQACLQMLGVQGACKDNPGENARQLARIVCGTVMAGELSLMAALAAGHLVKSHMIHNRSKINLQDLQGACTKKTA
Nature of the assay: HMG-Co-A reductase inhibition activity, dose-response curves (Sigma-Aldrich assay kit, absorbance at 340 nm). It counts as biochemical. As to conditions: NADP(H) 250 μM, sub-saturating NADP(H) and coenzyme A; decrease in absorbance at 340 nm; read-out: IC50 μM error. An excerpt: The utility of the compounds of Formula (I) and Formula (II) are provided below using the following materials and techniques as referenced in the procedure below: • 1. SigmaAldrich. […] In: catalog number CS 1090. […].com/catalog/product/[…]®ion=HR. […] Holdgate G, Ward […]. […] Louis-Flamberg […], Bryan D L, Leber J, Elliott […] et al. […] Nakamura C E, Abeles R H. Mode of interaction of β-hydroxy-β-methylglutaryl coenzyme A reductase with strong binding inhibitors: compactin and related compounds. […], Buchanan […]. Crystal structure of the catalytic portion of human HMG-CoA reductase: insights into regulation of activity and catalysis. […] Motulsky H, Christopoulos A. Fitting Models to Biological Data Using Linear and Nonlinear Regression: A Practical Guide to Curve Fitting Oxford University Press, USA; 1 edition 2004. Procedure: […] Briefly, the dose-response curves have been measured using soluble catalytic domain fragment of human HMG reductase. […] The activity was measured by following decrease in a sample's absorbance at 340 nm caused by enzymatic oxidation of NADP(H) in presence of coenzyme A. […] NADP(H) concentration in the assay mix was adjusted to 250 μM. […] Stock solutions of Na salts of EPA-statin, ALA-statin were prepared in assay buffer in concentration of 50 mM, and subsequently diluted to lower concentrations in the same buffer as needed.

With `CC[C@H](C)C(=O)O[C@H]1C[C@H](O)C=C2C=C[C@H](C)[C@H](CC[C@@H](O)C[C@@H](O)CC(=O)O)[C@H]21` [Pravastatin, reference compound], the IC50 worked out at 1.2 ± 1 µM.

The record behind these values is US9540307B2, “Statins of omega-3 polyunsaturated acids for treating hypercholesterolemia” (Jiva Pharma, Inc., priority 2014, dated 2017).
